In patent publication US20100215747A1, “NANOPARTICLES COMPRISING IONIZABLE, POORLY WATER SOLUBLE CELLULOSIC POLYMERS” (priority 2007, published 2010):

Procedure: By “solids concentration” is meant the amount of solid polymer added to the PBS solution to measure the solubility of the polymer in the PBS solution. An appropriate PBS solution is an aqueous solution comprising 20 mM sodium phosphate (Na2HPO4), 47 mM potassium phosphate (KH2PO4), 87 mM NaCl, and 0.2 mM KCl, adjusted to pH 6.5 with NaOH. A test to determine whether the polymer is poorly water soluble may be performed as follows. The polymer is initially present in bulk form with average particle sizes of greater than 1 micron. The solid polymer alone is added to a PBS solution to achieve a solids concentration of 0.2 mg/mL polymer in the PBS solution. The PBS solution is stirred for approximately 1 hour at room temperature. Next, a nylon 0.45 μm filter is weighed, and the polymer solution is filtered. The filter is dried overnight at 40° C., and weighed the following morning. The amount of polymer dissolved is calculated from the amount of polymer added to the PBS solution minus the amount of polymer remaining on the filter (mg).
The degree of water solubility of Polymers 2, 3, and 5 were evaluated as follows. […] The amount of dissolved polymer was calculated from amount of polymer added to the PBS solution minus the amount of polymer remaining on the filter (mg). […]

| Solubility (mg/mL) at pH 6.5 [mg/mL] | Substance |
| --- | --- |
| 0.2 | hydroxypropyl methylcellulose acetate succinate [CP1] |
| 0.2 | hydroxypropyl methylcellulose acetate succinate [CP2] |
